From patent publication US20230272059A1 (TILLOTTS PHARMA, published 2023)

Protein sequences, listed by entry. Tags and fused reporters are not part of them. Residues count along the entry.
UniProt P01375, 77-233 limits assumed: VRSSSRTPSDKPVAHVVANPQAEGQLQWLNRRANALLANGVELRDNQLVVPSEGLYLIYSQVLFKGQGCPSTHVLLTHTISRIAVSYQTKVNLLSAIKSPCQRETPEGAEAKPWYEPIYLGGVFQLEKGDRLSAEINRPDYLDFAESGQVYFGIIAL

Legend:
recombinant human TNFα [1] = target: T1, recombinant human TNFα (human, UniProt P01375 77-233); test: cell-based or functional assay
recombinant human TNFα [2] = target: T1, recombinant human TNFα; test: inhibition ELISA: biotinylated human TNFα pre-incubated with serially diluted infliximab, binding of unblocked TNFα to coated TNFRI-Fc detected

B1: infliximab (antibody, V domains shown)
VH: EVKLEESGGGLVQPGGSMKLSCVASGFIFSNHWMNWVRQSPEKGLEWVAEIRSKSINSATHYAESVKGRFTISRDDSKSAVYLQMTDLRTEDTGVYYCSRNYYGSTYDYWGQGTTLTVSS
VL: DILLTQSPAILSVSPGERVSFSCRASQFVGSSIHWYQQRTNGSPRLLIKYASESMSGIPSRFSGSGSGTDFTLSINTVESEDIADYYCQQSHSWPFTFGSGTNLEVKR
- IC50 (read off the curve) (L929 assay, % growth) (recombinant human TNFα [1]): ~0.007 µg/mL
- IC50 (read off the curve) (recombinant human TNFα [2]): ~0.05 µg/mL
